Test results published in patent US20070009537A1, “Antimicrobial activity of antibodies producing reactive oxygen species” (priority 2002, published 2007).

Assay: H2O2 production by UV irradiation of antibody/protein samples (Amplex Red assay)
Assay type: biochemical
Conditions: member of the immunoglobulin superfamily
Protocol: Aliquots (10 μL) were removed at timed intervals throughout the assay. H2O2 concentration was determined by the amplex red method. Each data point is reported as the mean±SEM of at least duplicate measurements: • polyclonal (poly) immunoglobulin (Ig) G, human; O poly-IgG, horse; □ poly-IgG, sheep; ∇ monoclonal (m) IgG (WD1-6G6), murine; Δ poly-IgM, human; ⋄ mIgG (92H2), murine; ▪ β-galactosidase (β-gal); ▴ chick ovalbumin (OVA); ▾ α-lactalbumin (α-lact); ♦ bovine serum albumin (BSA).
An aliquot (20 μl) from the protein solution was removed and added into a well of a 96-well microtiter plate (Costar) containing reaction buffer (80 μl). Working solution (100 μl/400 μM Amplex Red reagent 1/2 units/ml horseradish peroxidase) was then added, and the plate was incubated in the dark for 30 min. The fluorescence of the well components was then measured using a CytoFluor Multiwell Plate Reader (Series 4000, PerSeptive Biosystems, Framingham, Mass.; Ex/Em: 530/580 nm). The hydrogen peroxide concentration was determined using a standard curve. All experiments were run in duplicate, and the rate is quoted as the mean of at least two measurements.
The resultant solution was transferred to a glass, screw-cap vial and irradiated with UV light for 30 min. The concentration of H2O2 was determined after 30 min.

## β2-microglobulin: member of the immunoglobulin superfamily
  generation of H2O2: does not generate H2O2
Listed as β2-macroglobulin
  generation of H2O2: does not generate hydrogen peroxide
